Two molecules from BindingDB's records for patent US20240270732 (Chengdu Biobel Biotechnology Co., 2024) can be followed below.

In general, IC50 refers to the midpoint of a concentration-inhibition curve. Lower therefore signals higher potency.

This assay addresses T1, Receptor-interacting serine/threonine-protein kinase 1 (Homo sapiens, UniProt Q13546).
T1 sequence (Q13546 whole entry): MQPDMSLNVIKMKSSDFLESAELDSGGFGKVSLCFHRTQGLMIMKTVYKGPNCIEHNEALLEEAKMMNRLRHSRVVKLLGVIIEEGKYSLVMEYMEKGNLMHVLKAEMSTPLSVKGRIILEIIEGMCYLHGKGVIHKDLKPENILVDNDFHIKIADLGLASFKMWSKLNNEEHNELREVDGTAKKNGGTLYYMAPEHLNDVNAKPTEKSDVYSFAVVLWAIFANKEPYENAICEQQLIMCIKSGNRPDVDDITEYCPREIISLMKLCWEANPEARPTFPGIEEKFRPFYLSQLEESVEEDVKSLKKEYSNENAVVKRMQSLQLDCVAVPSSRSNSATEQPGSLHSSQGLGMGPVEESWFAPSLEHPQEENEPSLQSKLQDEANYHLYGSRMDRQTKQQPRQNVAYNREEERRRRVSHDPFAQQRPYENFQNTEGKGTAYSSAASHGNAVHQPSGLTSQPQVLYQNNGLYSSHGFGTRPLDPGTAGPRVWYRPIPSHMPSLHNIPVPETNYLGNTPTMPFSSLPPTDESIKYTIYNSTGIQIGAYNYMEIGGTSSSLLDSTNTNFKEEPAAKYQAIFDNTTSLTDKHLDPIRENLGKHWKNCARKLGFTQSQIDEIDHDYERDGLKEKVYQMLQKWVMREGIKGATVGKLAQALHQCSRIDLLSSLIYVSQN
In words: Inhibitory Activity Assay. The procedure: The compound of the present invention and the control compound were dissolved in the assay buffer (50 mM Hepes pH 7.5, 50 mM NaCl, 30 mM MgCl2, 1 mM DTT, 0.02% CHAPS, 0.5 mg/mL BSA), and diluted in a ratio of 1:1.5 using a 22-point titration (high concentration 2 μM), and then added to a 384-well plate. […] After completion of the reaction, 5 μL of ADP-Glo reagent containing 0.02% CHAPS was added to each well and incubated at room temperature for 1 h to terminate the kinase reaction and use up all remaining ATP. Then, 5 μL of ADP-Glo detection solution containing 0.02% CHAPS was added to each well and incubated at room temperature for 30 min to measure the emittance intensity.

Consider `C[C@H]1Oc2ccc(C#CCOCCOCCOCCOCCOCC#Cc3ccc4c(c3)N(C)C(=O)[C@@H](NC(=O)c3n[nH]c(Cc5ccccc5)n3)[C@@H](C)O4)cc2N(C)C(=O)[C@H]1NC(=O)c1n[nH]c(Cc2ccccc2)n1` [US20240270732, Compound I-81-1], for which half-maximal inhibition (IC50) required 7.79 nM.
With `C#CCOCCOCCOCCOCCOCC#Cc1ccc2c(c1)N(C)C(=O)[C@@H](NC(=O)c1n[nH]c(Cc3ccccc3)n1)[C@@H](C)O2` [US20240270732, Compound I-81-2] the figure was 9.08 nM.
